Data published in paper PMC5706701, “Development of a homogenous high-throughput assay for inositol hexakisphosphate kinase 1 activity” (PLoS ONE, 2017).

Chains of the proteins cited; added tags and fusions are not shown. Lines headed by an entry give the natural chain unless they say otherwise; changes in a name come on top.
UniProt Q92551: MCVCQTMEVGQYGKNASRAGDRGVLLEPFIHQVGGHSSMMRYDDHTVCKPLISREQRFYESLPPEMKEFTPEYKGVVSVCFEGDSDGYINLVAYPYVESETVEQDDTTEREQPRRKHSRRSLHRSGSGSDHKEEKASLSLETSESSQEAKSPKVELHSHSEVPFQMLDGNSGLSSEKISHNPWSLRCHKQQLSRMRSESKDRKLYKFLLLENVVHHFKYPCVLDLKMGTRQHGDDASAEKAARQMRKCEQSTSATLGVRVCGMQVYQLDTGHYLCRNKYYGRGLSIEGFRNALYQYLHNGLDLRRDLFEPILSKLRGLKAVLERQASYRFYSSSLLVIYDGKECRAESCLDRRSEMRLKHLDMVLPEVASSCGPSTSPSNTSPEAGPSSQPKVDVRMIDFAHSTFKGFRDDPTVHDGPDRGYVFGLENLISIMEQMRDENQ

Target: Human IP6K1 (Homo sapiens, UniProt Q92551)
Assay: IP6K1 high-throughput screen of the Sigma LOPAC (ADP-Glo Max, single point);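 also: final compound concentration 10µM in 5% DMSO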

Compound | Raw Signal (ADP-Glo Max raw signal per well) | Z-score (Z-score from raw signal with plate average and StDev) | Raw Signal (ADP-Glo Max luminescence raw signal per well)
CCN(CC)CC(=O)Nc1c(C)cccc1C [Lidocaine hydrochloride] | 52501 | -0.318 | –
Picrotoxin | – | – | 51061

Structures can show the parent of a compound that is named as a salt.
